Columns and labels:
Type in all cases: biochemical
ENPP1 [1] = molecular target: T1, ENPP1 (Homo sapiens, UniProt P22413); test: Indirect quantitation of 2',3'-cGAMP hydrolysis (AMP-Glo Assay kit); conditions: read-out: ENPP1 Inhibition -cGAMP: Ki; cGAMP substrate; Ki from IC50 by Cheng-Prusoff
ENPP1 [2] = molecular target: T1, ENPP1; test: ENPP1 enzyme assay with AMP-pNP substrate (hydrolysis of ATP analog); conditions: read-out: ENPP1 Inhibition _AMP-pNP: Ki, Ki from IC50 by Cheng-Prusoff
ENPP1 [3] = molecular target: T1, ENPP1; test: Substrate selectivity ratio, inhibition of cGAMP hydrolysis versus ATP hydrolysis

Amino acid sequences for entries named in this document (tags omitted).
UniProt P22413, whole entry: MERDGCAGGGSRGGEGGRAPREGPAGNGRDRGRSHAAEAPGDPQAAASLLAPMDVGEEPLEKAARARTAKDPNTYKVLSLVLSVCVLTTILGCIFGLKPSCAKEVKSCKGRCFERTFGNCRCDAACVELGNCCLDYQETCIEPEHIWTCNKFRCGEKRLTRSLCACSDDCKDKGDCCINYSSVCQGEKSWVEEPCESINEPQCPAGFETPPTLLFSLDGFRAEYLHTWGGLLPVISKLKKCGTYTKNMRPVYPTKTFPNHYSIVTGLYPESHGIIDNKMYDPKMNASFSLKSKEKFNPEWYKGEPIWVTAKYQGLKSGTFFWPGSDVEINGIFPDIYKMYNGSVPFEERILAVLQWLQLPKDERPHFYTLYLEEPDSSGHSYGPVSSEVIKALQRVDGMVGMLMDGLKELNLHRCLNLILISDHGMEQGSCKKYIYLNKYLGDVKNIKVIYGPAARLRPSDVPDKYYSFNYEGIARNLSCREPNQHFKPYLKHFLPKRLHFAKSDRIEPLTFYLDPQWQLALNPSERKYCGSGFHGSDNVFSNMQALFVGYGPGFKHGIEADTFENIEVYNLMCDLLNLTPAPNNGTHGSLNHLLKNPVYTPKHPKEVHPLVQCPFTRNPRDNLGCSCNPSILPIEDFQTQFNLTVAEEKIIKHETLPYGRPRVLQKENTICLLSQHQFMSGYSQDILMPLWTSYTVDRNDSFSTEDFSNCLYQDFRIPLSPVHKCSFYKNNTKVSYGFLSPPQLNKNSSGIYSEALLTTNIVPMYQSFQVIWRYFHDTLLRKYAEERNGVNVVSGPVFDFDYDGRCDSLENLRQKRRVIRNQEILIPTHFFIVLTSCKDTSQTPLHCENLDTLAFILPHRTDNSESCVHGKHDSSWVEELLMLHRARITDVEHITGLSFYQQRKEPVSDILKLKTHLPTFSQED

Ki (ENPP1 [1]): < 100 nM
Ki (ENPP1 [2]): 100 to 1000 nM
Substrate Selectivity: Ki AMP-pNP/Ki cGAMP (ENPP1 [3]): > 37
SMILES: COc1cc2nccc(-c3ccc(CN(C4CC4)S(N)(=O)=O)cc3)c2cc1OC

From patent US20230183239A1, “ECTONUCLEOTIDE PYROPHOSPHATASE-PHOSPHODIESTERASE 1 (ENPP-1) INHIBITORS AND USES THEREOF” (AbbVie Inc., priority 2017, published 2023)
